Experimental data reported in ChEMBL document CHEMBL1124836 (J Med Chem, 1990).

The chains behind the UniProt entries cited, without tags or fusion partners.
UniProt P25099, whole entry: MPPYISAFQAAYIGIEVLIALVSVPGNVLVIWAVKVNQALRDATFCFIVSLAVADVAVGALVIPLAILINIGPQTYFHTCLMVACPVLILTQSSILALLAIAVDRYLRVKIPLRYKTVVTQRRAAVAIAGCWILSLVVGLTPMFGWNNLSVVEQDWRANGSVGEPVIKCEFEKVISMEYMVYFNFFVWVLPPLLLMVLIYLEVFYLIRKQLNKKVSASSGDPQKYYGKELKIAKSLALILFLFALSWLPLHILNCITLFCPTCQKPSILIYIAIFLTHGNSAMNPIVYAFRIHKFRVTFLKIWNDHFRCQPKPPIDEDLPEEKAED

Target: Adenosine receptor A1 (Rattus norvegicus, UniProt P25099)
Test: Adenosine A1 receptor binding was measured in adenosine deaminase (ADA) pretreated rat cortical membranes using [3H]cyclohexyladenosine in the presence of 2-chloroadenosine

With `Nc1nc(Nc2ccccc2)nc2c1ncn2[C@@H]1O[C@H](CO)[C@@H](O)[C@H]1O` the Ki was 689 nM.

`CCNC(=O)[C@H]1O[C@@H](n2cnc3c(N)nc(NCCc4ccc(CCC(=O)O)cc4)nc32)[C@H](O)[C@@H]1O` [CGS-21680] showed a Ki of 1410 nM.
